{"source": "PubChem BioAssay AID1745845", "about": "(National Center for Advancing Translational Sciences (NCATS), 2022)", "note": "Where “and” joins values, the source holds several entries; their conditions need not be identical. Identical values can stand only once. The entries are a selection whose mix differs from that of the whole data set. Some results for these compounds are left out of this collection, so the calls shown say nothing about other tests. Inconclusive results are not listed. Calls of active or inactive are those of the source. Calls follow the shape of the dose curve; as a rule, active = well fitted inhibition curve with a large enough effect; inconclusive = small, poorly fitted or top-dose-only effect; inactive = no such curve, though single readings can be large or run the other way. % is scaled to controls: 0 for no effect and ±100 for the full control effect.", "data": [{"assay": "Primary qHTS for Inhibitors of ATXN expression; also: nearly all actives have a fitted effect of over 55% in size", "settings": "HEK-293 ATXN2-luciferase reporter, luminescence, 24 h; at 57 µM (top of the series)", "values": [{"molecule": "CN(C)C1(CNC(=O)c2ccccc2F)CCCCC1", "activity change, negative = inhibition": "inactive: 0.0814%"}, {"molecule": "Cc1ccc(C(=O)NCC2(N3CCCCC3)CCCCC2)cc1", "activity change, negative = inhibition": "inactive: -17.1%"}, {"molecule": "CC(C)N1C(=O)CC2(CCN(CCOC(=O)C(O)(c3ccccc3)c3ccccc3)CC2)C1=O", "activity change, negative = inhibition": "inactive: 2.68%"}, {"molecule": "CN(C)C1(CNC(=O)c2cccc(Cl)c2)CCCCC1", "activity change, negative = inhibition": "inactive: -4.85%"}, {"molecule": "CCN(CC)CC(C)C(C)OC(=O)C(O)(c1ccccc1)c1ccccc1", "note": "(stereo unspecified)", "activity change, negative = inhibition": "inactive: -0.557%"}, {"molecule": "COc1cc(SC)ccc1C(=O)NCC1(N(C)C)CCCCC1", "activity change, negative = inhibition": "inactive: 1.5%"}, {"molecule": "O=C(NCC1(N2CCCCC2)CCCCC1)c1cc([N+](=O)[O-])ccc1Cl", "activity change, negative = inhibition": "inactive: 10.8%"}, {"molecule": "CCN1CCCC(OC(=O)C2(O)c3ccccc3C=Cc3ccccc32)C1", "note": "(stereo unspecified)", "activity change, negative = inhibition": "inactive: -12.1%"}, {"molecule": "Cc1cc(C(=O)NCC2(N3CCCCC3)CCCCC2)ccc1[N+](=O)[O-]", "activity change, negative = inhibition": "inactive: 20.5%"}, {"molecule": "O=C(NCC1(N2CCCCC2)CCCCC1)c1cccc(Br)c1", "activity change, negative = inhibition": "inactive: -5.23%"}, {"molecule": "COc1ccc(C(=O)NCC2(N(C)C)CCCCC2)cc1", "activity change, negative = inhibition": "inactive: 3.6%"}, {"molecule": "CCOc1cccc(C(=O)NCC2(N(C)C)CCCCC2)c1", "activity change, negative = inhibition": "inactive: -6.87%"}, {"molecule": "O=C(NCC1(N2CCCCC2)CCCCC1)c1cc(F)c(F)cc1Cl", "activity change, negative = inhibition": "inactive: 2.13%"}, {"molecule": "CCCCOc1ccccc1C(=O)NCC1(N(C)C)CCCCC1", "activity change, negative = inhibition": "inactive: -14.3%"}, {"molecule": "CN(C)C1(CNC(=O)c2ccccc2[N+](=O)[O-])CCCCC1", "activity change, negative = inhibition": "inactive: 2.15%"}, {"molecule": "CN(C)c1ccc(C(=O)NCC2(N(C)C)CCCCC2)cc1", "activity change, negative = inhibition": "inactive: 7.02%"}, {"molecule": "CN(C)C1CCCC1OC(=O)C(O)(c1ccccc1)c1ccccc1", "note": "(stereo unspecified)", "activity change, negative = inhibition": "inactive: 0.687%"}, {"molecule": "O=C(NCC1(N2CCCCC2)CCCCC1)c1cccc(Cl)c1", "activity change, negative = inhibition": "inactive: -1.32%"}, {"molecule": "COc1ccc(C(=O)NCC2(N(C)C)CCCCC2)cc1Cl", "activity change, negative = inhibition": "inactive: -6.28%"}, {"molecule": "COc1cccc(C(=O)NCC2(N3CCCCC3)CCCCC2)c1", "activity change, negative = inhibition": "inactive: 5.8%"}, {"molecule": "COc1ccc(Cl)cc1C(=O)NCC1(N(C)C)CCCCC1", "activity change, negative = inhibition": "inactive: -6.44%"}, {"molecule": "CN(C)C1(CNC(=O)c2ccc(Br)cc2)CCCCC1", "activity change, negative = inhibition": "inactive: -18.9%"}, {"molecule": "CN(C)c1cccc(C(=O)NCC2(N(C)C)CCCCC2)c1", "activity change, negative = inhibition": "inactive: -2.27%"}, {"molecule": "CC(C)Oc1ccc(C(=O)NCC2(N(C)C)CCCCC2)cc1", "activity change, negative = inhibition": "inactive: 3.96% and inactive: 5.65%"}, {"molecule": "O=C(OCCN1CCCC1)C(O)(c1ccccc1)c1ccccc1", "activity change, negative = inhibition": "inactive: 18.7%"}, {"molecule": "COc1cc(C(=O)NCC2(N(C)C)CCCCC2)cc(OC)c1OC", "activity change, negative = inhibition": "inactive: 7.55%"}, {"molecule": "Cc1cccc(C(=O)NCC2(N(C)C)CCCCC2)c1", "activity change, negative = inhibition": "inactive: 5.04%"}, {"molecule": "COc1ccc(Br)c(C(=O)NCC2(N3CCCCC3)CCCCC2)c1", "activity change, negative = inhibition": "inactive: -2.18%"}, {"molecule": "CC(C)COc1ccc(C(=O)NCC2(N(C)C)CCCCC2)cc1", "activity change, negative = inhibition": "inactive: -28.8%"}, {"molecule": "O=C(OC1CN2CCC1CC2)C(CO)(c1ccccc1)c1ccccc1", "note": "(stereo unspecified)", "activity change, negative = inhibition": "inactive: -8.48%"}, {"molecule": "COc1cccc(C(=O)NCC2(N3CCOCC3)CCCCC2)c1", "activity change, negative = inhibition": "inactive: 11.2%"}]}]}
